Assay results from patent US8664249B2, “Tetrasubstituted benzenes” (EnVivo Pharmaceuticals, Inc., priority 2007, dated 2014).

Target: γ-secretase (Homo sapiens, UniProt P49768)
Assay: Aβ42 lowering in HEK-293 cells overexpressing APP (ELISA of conditioned medium)
Assay type: cell-based
Conditions: read-out: Activity (EC50 for lowering Aβ42), in vitro

## CC(C)CC(C(=O)O)c1cc(OCC2CC2)c(Cl)c(-c2ccc(C(F)(F)F)cc2)c1 (stereo not shown)
  EC50: < 1000 nM
